Values quoted from earlier work as cited in patent publication US9782400B2, “Oncogenic ROS1 and ALK kinase inhibitor” (Macau University of Science and Technology, priority 2015, dated 2017).

Tested on: ROS1-positive NSCLC
Conditions: NSCLC patients harboring ROS1 rearrangements; cited from earlier work

Structure (SMILES): C[C@@H](Oc1cc(-c2cnn(C3CCNCC3)c2)cnc1N)c1c(Cl)ccc(F)c1Cl [crizotinib]
- median duration of response: 17.6 months
